Data set [1] has as its target Angiopoietin-1 receptor (Homo sapiens) (UniProt Q02763). Description: Inhibition of human TIE2 (771 to 1124 residues) assessed as enzyme activity at 1 uM using 33P ATP by radioactive filter binding assay. Also on record: scale not given: the % may be the effect or the level left.
The test system of another data set is MAPK3 (ERK1). As to the kind of experiment: Inhibition of human MAPK3 (2 to 379 residues) assessed as enzyme activity at 1 uM using 33P ATP by radioactive filter binding assay. Set-up: scale not given: the % may be the effect or the level left.
Data set [2] addresses Tyrosine-protein kinase SYK (Homo sapiens) (UniProt P43405). Description: Inhibition of human SYK (1 to 635 residues) assessed as enzyme activity at 1 uM using 33P ATP by radioactive filter binding assay. Also on record: scale not given: the % may be the effect or the level left.
The nature of data set [3]: Efflux ratio of permeability from basolateral to apical over apical to basolateral side in human Caco2 cells. The following applies: caco-2. It counts as ADME, cell-based.

Sequences of proteins named here, by UniProt entry; tags and fusion partners are left off. A change or cut given only in a name is not applied to a line headed by its entry.
UniProt Q02763: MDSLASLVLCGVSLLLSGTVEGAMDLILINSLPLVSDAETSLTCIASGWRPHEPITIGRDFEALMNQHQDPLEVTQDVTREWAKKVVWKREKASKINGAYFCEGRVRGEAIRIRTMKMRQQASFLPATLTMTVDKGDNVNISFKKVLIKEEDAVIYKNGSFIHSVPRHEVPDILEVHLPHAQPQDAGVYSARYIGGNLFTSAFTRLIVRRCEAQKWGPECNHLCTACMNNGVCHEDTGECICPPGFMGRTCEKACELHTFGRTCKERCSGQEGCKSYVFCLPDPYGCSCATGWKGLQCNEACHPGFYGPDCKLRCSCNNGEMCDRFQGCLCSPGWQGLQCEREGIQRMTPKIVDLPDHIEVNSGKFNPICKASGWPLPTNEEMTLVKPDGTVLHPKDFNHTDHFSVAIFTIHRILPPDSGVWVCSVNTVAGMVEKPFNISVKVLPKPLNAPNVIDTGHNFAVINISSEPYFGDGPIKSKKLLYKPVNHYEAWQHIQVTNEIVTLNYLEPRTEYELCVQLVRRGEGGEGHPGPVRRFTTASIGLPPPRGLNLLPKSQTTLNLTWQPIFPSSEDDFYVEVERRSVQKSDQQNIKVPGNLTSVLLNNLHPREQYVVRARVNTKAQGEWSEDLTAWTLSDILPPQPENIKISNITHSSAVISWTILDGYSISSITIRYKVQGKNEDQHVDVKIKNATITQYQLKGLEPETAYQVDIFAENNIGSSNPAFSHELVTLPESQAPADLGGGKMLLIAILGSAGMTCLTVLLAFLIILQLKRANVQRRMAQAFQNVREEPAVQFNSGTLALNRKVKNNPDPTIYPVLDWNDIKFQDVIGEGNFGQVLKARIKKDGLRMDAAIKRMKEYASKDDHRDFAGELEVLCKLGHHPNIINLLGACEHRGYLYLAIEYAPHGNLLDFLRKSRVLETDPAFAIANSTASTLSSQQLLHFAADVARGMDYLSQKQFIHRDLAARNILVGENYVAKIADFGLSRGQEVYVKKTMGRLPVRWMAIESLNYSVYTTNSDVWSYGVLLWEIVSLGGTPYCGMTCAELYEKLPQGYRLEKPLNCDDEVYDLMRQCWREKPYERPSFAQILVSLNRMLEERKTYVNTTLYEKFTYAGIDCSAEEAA

For `Nc1nccc(-c2c[nH]c3ncccc23)n1` [MERIOLIN 1], the Activity was 19% in data set [1] and -19% in the data set with MAPK3 (ERK1).
Consider `CCc1cc(-c2c[nH]c3ncc(-c4cnn(C5CCNCC5)c4)cc23)nc(N)n1`, for which the Activity in data set [2] is 21%; in the data set on MAPK3 (ERK1) it was -21%. The Ratio in data set [3] stood at 0.6.
Take `CCCCc1cc(-c2c[nH]c3ncccc23)nc(N)n1`: in the data set on MAPK3 (ERK1), the Activity was -5%.

Values taken from ChEMBL document CHEMBL3813616, “Discovery of novel 7-azaindoles as PDK1 inhibitors” (Bioorg Med Chem Lett, 2016).
